The results in this text go back to article PMC4370505 (PLoS ONE, 2015).

Data set [1] can be described thus: Stability of resveratrol-polymer conjugates in rat plasma. The class given is in vitro ADME. Particulars: 37°C; for Plasma t1/2: rat plasma in vitro; for Intact conjugate detected by HPLC at initial time point: rat plasma, initial time point of 0 h. The method, then:
The MeO-PEGN-Succ-RSV, 2 kDa, 20 kDa and MeO-PEGO-Succ-RSV 2 kDa (MW quoted in the paper is the size of polymer only. Mw for RSV is 228 Da) at the 10 mg/mL were incubated in plasma at 37°C. […] Aliquots of plasma (0.1 mL) were withdrawn at regular intervals and mixed with acetonitrile (0.9 mL). The mixtures were centrifuged at 10,000 rpm for 5 minutes. The supernatant (0.25 mL) was diluted with water (0.25 mL) and analysed by HPLC [28]. All samples were protected against light during the experiments.

Data set [2] can be described thus: In vitro metabolism in rat liver microsomes with UDPA. The class given is in vitro ADME. Particulars: for Metabolism in microsomal incubations: rat liver microsomes with UGT reaction mixture, over 60 minutes. The method, then: Incubations of test substances in reaction mixtures without microsomes were used as a control. All samples were protected against light during the experiments.
Background: Liver microsomes are a subcellular fraction often used to study metabolism.

The nature of data set [3]: Behaviour of conjugates in aqueous solution (solubility / self-aggregation). The class given is physicochemical. Particulars: up to 10 mg/mL. The method, then: A solution of 40 mg of MeO-PEG-PLAO-Succ-RSV conjugate in acetonitrile (2 mL) was prepared. The stock solution was diluted with water (4 mL). The acetonitrile was removed by bubbling inert nitrogen gas at room temperature in the dark. The final volume of micellar/nanoparticle dispersion was adjusted to the required volume with water. For pharmacokinetic studies, final concentration of conjugate in micelle dispersion was 10 mg/mL and for critical micellear concentration measurement, the dispersion was diluted accordingly to obtain a series concentration of conjugate in solution below and above the CMC. The micelles of MeO-PEGO-Succ-RSV were formed spontaneously after dispersing in water.

Data set [4] is described as follows: Single dose intravenous pharmacokinetic study in Wistar rats. The class given is in vivo. Particulars: for Detectability of conjugate in plasma: 2 mg/kg. The method, then:
Pharmacokinetic studies were conducted with male Wistar rats. Rats were acclimatized and housed at 22°C under 12h light/dark cycle with free access to sterilized commercial food pellets and water in the animal research facility (Curtin University) for at least 3 days prior to experiments. All animal experiments were approved by the Animal Ethics Committee of Curtin University (Approval no: R37–10 Amendment Approval No: A47–10 and A56–10) and were performed according to the Australian Code of Practice for the care and use of animals for scientific purposes. In order to minimize pain and suffering, the dosing and bleeding procedures were conducted under anesthesia (isoflurane at 5% for the induction and 2% for the maintenance, in combination with 1.5% oxygen). At the end of the study, rats were scarified by anesthetic euthanasia using 5% isofluorane with 1.5% oxygen. […] Blood (300 μL) was collected from the tail vein at 0.08, 0.5, 1, 2 and 4 hours into EDTA coated tubes. The blood samples were immediately stored in ice and protected from light until centrifuged (12000 × g at 4°C for 10 min). […] Metabolites were identified using LC-MS/MS (Applied Biosystems, 4000 QTRAP, Toronto, Canada).
Data analysis and representation (mean ± SD) were performed with SigmaPlot version 12 (Systat Software, Inc., Chicago, IL). Pharmacokinetic analysis was performed using Kinetica Version 5.0 (Thermo Fisher Scientific, Inc., Waltham, MA). Non compartmental analysis of the plasma concentration-time data was used to estimate the area under the curve (AUC0-∞; log-linear trapezoidal method), elimination half-life (t½), apparent clearance (CL; Dose÷AUC0-∞), mean residence time (MRT) and volume of distribution (Vss; CL×MRT). Statistical analysis of pharmacokinetic parameters was performed using unpaired t-test with Graphpad Prism software (version 6.05). Pharmacokinetic parameters obtained for each group were analyzed against the resveratrol group and p values were reported.

Data set [5] can be described thus: Stability of resveratrol-polymer conjugates in physiological relevant buffers. The class given is physicochemical. To be noted: phosphate buffer 0.1M pH 7.4, 37°C. The method, then: Briefly, reversed phase chromatographic separation was employed for analysis with xxx column. The HPLC gradient system consisted of solvent A, buffer pH 7.0 with triethyl amine-formic acid (0.05 and 0.2% v/v in water) and solvent B, methanol. A 30 min linear gradient was programmed as follows: 0 min 5% B, 4 min 20% B, 7 min 20% B, 16 min 55% B, 18 min 55% B, 18.5 min 95% B, 23 min 95% B, 24 min 5% B. The flow rate was maintained at 1 mL/min and the injection volume was 50 μL. The HPLC analysis was performed at ambient temperature. Altech Apollo C18 150 X 4.6 mm, 5μ column was employed for seperation. This HPLC method was validated to precisely separate and quantify the trans-resveratrol in the analyte mixture. There was at least two min difference in retention times for the trans and cis isomers of resveratrol. The UV spectrum of the trans isomer is very different from the cis isomer, thus any change to the trans isomer could have been detected. Although quantification was performed using the fluorescence detector at an excitation wavelength of 320nm and emission at 400 nm, simultaneous UV chromatograms were also recorded for specificity and peak purity purposes.
A similar procedure was used to study the stability of MeO-PEG-PLAO-Succ-RSV in buffers; micelles were prepared as per section 2.8 and diluted 1:5 with buffer solutions and incubated at 37°C. […]

Setting [6] is: 2 mg/kg equivalent vs resveratrol 10 mg/kg, rats IV.
The mark [7] stands for this setting: rats, IV, 2 mg/kg resveratrol equivalent.
Where [8] appears, read: rats, IV, 2 mg/kg resveratrol equivalents, mean ± SD.

“α-methoxy-ω-carboxylic acid poly(ethylene glycol) succinylamide resveratrol [MeO-PEGN-Succ-RSV 2 kDa]”: in data set [1], the “Plasma t1/2” value is less than 5 min and the “Intact conjugate detected by HPLC at initial time point” value is recorded as “almost no intact polymer conjugate was detected”. Besides, in data set [2] (incubation buffer without microsomes, 37°C), the “Hydrolysis in control incubations without microsomes” value is reported as “significant degree of conjugate hydrolysis to free resveratrol”. Further, the “Metabolism in microsomal incubations” value in data set [2] was “formation of moderate amount of glucuronide metabolites”. Also, the “Behaviour in aqueous solution” value in data set [3] was “soluble and formed a clear solution”.

Consider “α-methoxy poly(ethylene glycol)-co-polylactide succinyl ester resveratrol [MeO-PEG-PLAO-Succ-RSV 2 kDa]”, for which the “Plasma t1/2” value in data set [1] amounted to 180 min. Besides, the “Metabolism in microsomal incubations” value in data set [2] is given as “did not result in any detectable level of metabolites”. For the same substance, in data set [4] (setting [6]), the “Fold higher AUC compared to resveratrol” value was found to be 9 fold, the “Fold lower Vss compared to resveratrol” value was found to be 24 fold and the “Fold lower apparent CL compared to resveratrol” value stood at 34 fold. In addition, in data set [4] (setting [7]), the “Detectability of conjugate in plasma” value is given as “lack of detectable conjugate after 2 hr”. Further, in data set [4] (setting [8]), the “AUC0-∞” value amounted to 21 ± 17 µmol·h/L; the CL was found to be 0.58 ± 0.26 L/h/kg; the mean residence time MRT (usually a mean duration of stay, worked out from the concentration-time curve) is listed as 1.9 ± 0.4 h; the Vss (usually a proportionality between amount in the body and measured concentration, not a real space) turned out to be 1.12 ± 0.60 L/kg. Further, the t½ (commonly the time in which the quantity being followed falls by half) in data set [4] (setting [8]) is 1.7 ± 0.5 h.

On to “α-methoxy-ω-carboxylic acid poly(ethylene glycol) succinylamide resveratrol [MeO-PEGN-Succ-RSV20 kDa]”, for which, in data set [1], the “Plasma t1/2” value was less than 5 min and the “Intact conjugate detected by HPLC at initial time point” value is recorded as “almost no intact polymer conjugate was detected”. Also, in data set [5], the “% Conjugate Remaining at 24 hr pH 7.4” value is reported as “about 9%”.

Take “α-methoxy poly(ethylene glycol)-co-polylactide succinyl ester resveratrol [MeO-PEG-PLAO-Succ-RSV 6.6 kDa]”: the “Plasma t1/2” value in data set [1] was 5 min. Besides, the “Level of metabolites in plasma” value in data set [4] (rats, IV, 2 mg/kg resveratrol equivalent, compared with MeO-PEG-PLAO-Succ-RSV 2 kDa) is “higher level of metabolites”. Further, the “Detectability of conjugate in plasma” value in data set [4] (setting [7]) is on record as “no quantifiable polymer conjugate detected”.
